Literature values as cited in publication PMC6692079 (Journal of medicinal chemistry, 2018).

Conditions: rats; cited from earlier work

(3R)-7-hydroxy-N-[(1S)-1-[[(3R,4R)-4-(3-hydroxyphenyl)-3,4-dimethyl-1-piperidinyl]methyl]-2-methylbutyl]-1,2,3,4-tet- rahydro-3-isoquinoline-carboxamide [RTI-194]
AUClast, fold higher in brain than in plasma: approximately 10
